Source: US8993599B2, “Pharmaceutical formulations useful for inhibiting acid secretion and methods for making and using them” (Santarus, Inc., priority 2003, dated 2015)

Conditions: human, in vivo, 20 mg

COc1ccc2[nH]c([S+]([O-])Cc3ncc(C)c(OC)c3C)nc2c1 (stereo not shown) [Prilosec Delayed-Release Capsules 20 mg]
Tmax: 1.50 h
